Data published in patent US20250073302A1, “CYCLIC PEPTIDES AS PROTEASOME STIMULATORS” (Purdue Research Foundation, priority 2023, published 2025).

System: A549 cells
Details: 15 μM CyPPS26, A549 cells, LysoTracker, 1.5 hours, confocal microscopy

TXFFRA [CyPPS26, TXFFRA [SEQ ID NO: 26]]
cell permeability and mechanism of cell uptake: Endosomal uptake was confirmed
